Results as given in patent US20140328940A1, “MODULATION OF AXON DEGENERATION” (Genentech, Inc., priority 2009, published 2014).

System: dorsal root ganglion neurons
Test: EGFR ectodomain in NGF withdrawal degeneration of DRGs
Assay type: cell-based, mouse
Settings: 50 μg/ml; added 24 hours prior to or at the same time as anti-NGF
Description: Materials used in these studies include BD Biocoat PDL/Laminin coated glass 8 well chamber slides (BD 354688); L15 medium (Invitrogen 11415114); albumin from bovine serum (BSA) (Sigma A7906-500g); fetal bovine serum (Sigma F2442-100 ml); N3 supplement (see above); Fluoromount G (Electron Microscopy Sciences 17984-25); 24×60 min No. 1 coverslips (VWR 48393 106); monoclonal anti neuronal class III beta-tubulin (Covance MMS-435P); Nerve Growth Factor 2.5 S, mouse (Roche 11362348001) in Ham's F12; and Triton X-100 (Sigma T8787-100 ml). Solutions used in these experiments include 25 ml N3/F12 medium (23 ml of Ham's F12; 1 ml of N3 supplement; 1 ml of 1M glucose; 25 ng/ml of NGF) and 30% Sucrose/8% PFA (see above).
Ectodomains (R&D Systems) were resuspended in sterile filtered 0.1% BSA in PBS to 1 mg/ml. Mouse E13.5 embryos were dissected out and place into L15 medium. Using forceps, the ventral region of the embryo was opened, organs removed, ribs cut away, and spinal cord dissected out with DRGs attached. The spinal cords with DRGs attached were placed into L15 medium+5% goat serum on ice. DRGs were removed with a tungsten needle and the remaining spinal cord was disposed of 8 well slides were filled with N3-F12 plus 25 ng/ml NGF. DRGs were sectioned into halves. […]

For “EGFR ectodomain: EGFR ectodomain from R&D Systems”, the “block of degeneration induced by NGF withdrawal” value was “does not block degeneration”.
